The values below come from US8648092B2, “Imidazo[1,2-a]pyridine derivatives: preparation and pharmaceutical applications” (MEI Pharma, priority 2005, dated 2014).

Amino acid sequences for entries named in this document (tags omitted).
UniProt Q13547, whole entry: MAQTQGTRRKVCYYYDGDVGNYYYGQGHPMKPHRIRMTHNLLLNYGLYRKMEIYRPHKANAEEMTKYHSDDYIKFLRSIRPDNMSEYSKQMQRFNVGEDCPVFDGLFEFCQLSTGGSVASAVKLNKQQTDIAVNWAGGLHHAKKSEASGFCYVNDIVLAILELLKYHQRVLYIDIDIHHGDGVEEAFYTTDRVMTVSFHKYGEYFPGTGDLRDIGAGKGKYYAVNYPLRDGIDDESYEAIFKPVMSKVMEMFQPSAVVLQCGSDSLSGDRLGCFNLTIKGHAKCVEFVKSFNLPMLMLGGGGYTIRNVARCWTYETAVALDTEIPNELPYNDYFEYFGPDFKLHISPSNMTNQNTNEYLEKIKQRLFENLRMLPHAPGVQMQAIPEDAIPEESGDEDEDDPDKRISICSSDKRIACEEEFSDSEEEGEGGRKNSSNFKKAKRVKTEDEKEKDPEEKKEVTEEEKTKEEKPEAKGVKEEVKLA

This assay addresses HDAC1 enzyme (recombinant GST-HDAC1) (Homo sapiens (Human), UniProt Q13547). The assay can be described thus: In vitro HDAC assay for determination of IC50 values (BIOMOL fluorescent-based HDAC activity assay). Conditions: Flur de lys substrate, 2 h room temperature, read-out: IC50 (HDAC 1). In kind it is biochemical. As to the method:
Biological Testing and Enzyme Assays Recombinant GST-HDAC1 Protein Expression and Purification
Human cDNA library was prepared using cultured SW620 cells. Amplification of human HDAC1 coding region from this cDNA library was cloned separately into the baculovirus expression pDEST20 vector (GATEWAY Cloning Technology, Invitrogen Pte Ltd). The pDEST20-HDAC1 construct was confirmed by DNA sequencing. Recombinant baculovirus was prepared using the Bac-To-Bac method following the manufacturer's instruction (Invitrogen Pte Ltd).
Expression of GST-HDAC1 was done by infecting SF9 cells (Invitrogen Pte Ltd) with pDEST20-HDAC1 baculovirus at MOI=1 for 48 h. Soluble cell lysate was incubated with pre-equilibrated Glutathione Sepharose 4B beads (Amersham) at 4° C. for 2 h. The beads were washed with PBS buffer for 3 times. The GST-HDAC1 protein was eluted by elution buffer containing 50 mM Tris, pH8.0, 150 mM NaCl, 1% Triton X-100 and 10 mM or 20 mM reduced Glutathione. The purified GST-HDAC1 protein was dialyzed with HDAC storage buffer containing 10 mM Tris, pH7.5, 100 mM NaCl and 3 mM MgCl2. 20% Glycerol was added to purified GST-HDAC1 protein before storage at −80° C.
In Vitro HDAC Assay for Determination of IC50 Values
The assay has been carried out in 96 well format and the BIOMOL fluorescent-based HDAC activity assay has been applied. […] Flur de lys Developer was added and the reaction was incubated for 10 min. Briefly, deacetylation of the substrate sensitizes it to the developer, which then generates a fluorophore. The fluorophore is excited with 360 nm light and the emitted light (460 nm) is detected on a fluorometric plate reader (Tecan Ultra Microplate detection system, Tecan Group Ltd.).
The analytical software, Prism 4.0 (GraphPad Software Inc) has been used to generate IC50 from a series of data.
In the case of `CCC(C)CN(CC)Cc1c(C(C)(C)C)nc2cc(/C=C/C(=O)NO)ccn12` (stereo not drawn) [Compound 88, 3-(2-tert-Butyl-3-{[ethyl-(2-methyl-butyl)-amino]-methyl}-imidazo[1,2-a]pyridin-7-yl)-N-hydroxy-acrylamide], the IC50 (usually the concentration needed to halve the response being measured) was 0.26 µM.
In the case of `CCN(CCC(C)C)Cc1c(C)nc2cc(/C=C/C(=O)NO)ccn12` [Compound 124, 3-(3-{[Ethyl-(3-methyl-butyl)-amino]-methyl}-2-methyl-imidazo[1,2a]pyridin-7-yl)-N-hydroxy-acrylamide], the IC50 worked out at 0.02 µM.
For the compound `CCN(CCC(C)C)Cc1c(CC(C)C)nc2cc(/C=C/C(=O)NO)ccn12` [Compound 135, 3-(3-{[Ethyl-(3-methyl-butyl)-amino]-methyl}-2-isobutyl-imidazo[1,2-a]pyridin-7-yl)-N-hydroxy-acrylamide], the IC50 came out at 0.02 µM.
